Measurements taken from patent publication US4025528A, “Thiazole derivatives of benzoic and phenylalkanoic acids” (Shionogi & Co., Ltd., priority 1973, dated 1977).

Assays:
[1] = in vivo; conditions: mouse, po
[2] = in vivo; conditions: rat, po

CC(C(=O)O)c1ccc(Oc2nccs2)cc1 (centres unmarked) [Example 48-156, 2-[4-(2-thiazolyloxy)phenyl]propionic acid]
LD50 at 72 h [1]: 1800 mg/kg
LD50 at 72 h [2]: 154 mg/kg
